Source: PubChem BioAssay AID651800 (The Scripps Research Institute Molecular Screening Center, 2012)
Only a part is listed here, and it is no random draw. Some structures show a salt or complex split into parts, the way the source records it. Calls of active or inactive are those of the source. No stated cut-off is given here; in the data, active means inhibition above about 19%; inactive means the rest.

These compounds were tested on T-cell receptor (TCR) (assay: inhibitors of human TCR-CD3 interaction, primary screen, biochemical, fluorescence, TAMRA-labeled TCR probe (AID 651800;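 further: recombinant mutant TCR 2C K166C tagged with TAMRA read by polarization; 0% = receptor in buffer alone and 100% = receptor with positive control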)). Settings: at 9.4 µM, hits give high values.
For COc1ccc(OP(C)(=O)Nc2cccc(Br)c2)cc1 (centres undefined), the inhibition was inactive: 0.48%. With COc1ccc(NP(C)(=O)Oc2ccccc2OC)cc1 (centres undefined) the inhibition was inactive: 3.88%. With CN(C)CCOC(=O)C(O)(c1ccccc1)C1CCCCC1 (centres undefined) the inhibition was inactive: -1.27%. For Cc1cc(-c2cccc3ccccc23)c(C)cn1.O=[N+]([O-])c1cc([N+](=O)[O-])c(O)c([N+](=O)[O-])c1, the inhibition was inactive: 1.65%. O=[N+]([O-])c1cc([N+](=O)[O-])c(NCC2CCS(=O)(=O)C2)c([N+](=O)[O-])c1 (centres undefined) was tested, and the inhibition was inactive: -0.68%. For O=[N+]([O-])c1ccc(OP2(=O)COCCO2)cc1 (centres undefined), the inhibition was inactive: 9.56%. In the case of Cc1c(C(c2ccc3c(c2)OCO3)c2c(C)n(C)n(-c3ccccc3)c2=O)c(=O)n(-c2ccccc2)n1C.O=[N+]([O-])c1cc([N+](=O)[O-])c(O)c([N+](=O)[O-])c1, the inhibition was inactive: -2.78%. In the case of CP(=O)(Nc1ccc(SC(F)(F)F)cc1)Oc1ccc(F)cc1 (centres undefined), the inhibition was inactive: 7.52%. For CCOP(=O)(CC)OCC, the inhibition was inactive: -4.27%. CCOP(C)(=S)SCC(=O)NC(C)(CC)C(=O)O (centres undefined) was tested, and the inhibition was inactive: 0.03%. In the case of CP(=O)(Nc1ccc2c(c1)OCCO2)Oc1ccccc1 (centres undefined), the inhibition was inactive: -7.26%. In the case of O=[N+]([O-])c1cc([N+](=O)[O-])c(C(F)(F)F)c([N+](=O)[O-])c1O, the inhibition was inactive: -0.01%. Cc1ccccc1NP(C)(=O)Nc1ccccc1C was tested, and the inhibition was inactive: 8.52%. In the case of O=[N+]([O-])c1cc([N+](=O)[O-])c(Nc2ccc(Cl)cc2)c([N+](=O)[O-])c1, the inhibition was inactive: 8.18%. In the case of CC(C)c1ccc(OP(C)(=O)Nc2ccc(SC(F)(F)F)cc2)cc1 (centres undefined), the inhibition was inactive: 13.2%. In the case of CP(=O)(Nc1ccccc1F)Oc1ccccc1 (centres undefined), the inhibition was inactive: -5.46%. O=C(OCCN1CCN(CCOCc2ccccc2)CC1)C(O)(c1ccccc1)c1ccccc1 was tested, and the inhibition was inactive: 0.38%. With O=C(OC1CN2CCC1CC2)c1ccc([N+](=O)[O-])cc1 (centres undefined) the inhibition was inactive: -15.5%. With COc1ccc2c(c1O)-c1c(O)c(OC)cc3c1[C@H](C2)[N+](C)(C)CC3.O=[N+]([O-])c1cc([N+](=O)[O-])c([O-])c([N+](=O)[O-])c1[O-] the inhibition was inactive: 1.86%. With CCN(CC)CCCNc1ccccc1[N+](=O)[O-].O=[N+]([O-])c1cc([N+](=O)[O-])c(O)c([N+](=O)[O-])c1 the inhibition was inactive: -2.42%. COc1ccc(OP(C)(=O)Nc2ccc(SC(F)(F)F)cc2)cc1 (centres undefined) was tested, and the inhibition was inactive: 9.05%. With CCOC(=O)c1ccc(NP(C)(=O)Oc2ccc(F)cc2)cc1 (centres undefined) the inhibition was inactive: -1.27%. For CCN(CC)CCCOC(=O)C(O)(c1ccccc1)C1CCCCC1 (centres undefined), the inhibition was inactive: -6.39%. With Cc1c([N+](=O)[O-])cc([N+](=O)[O-])c(Br)c1[N+](=O)[O-] the inhibition was inactive: 7.14%. For CCCCCOc1ccc(NP(C)(=O)Oc2ccc(Cl)cc2Cl)cc1 (centres undefined), the inhibition was inactive: -4.68%. With O=[N+]([O-])c1cc([N+](=O)[O-])c(OC2CCCCC2O)c([N+](=O)[O-])c1 (centres undefined) the inhibition was inactive: -5.7%. In the case of CP(=O)(Nc1ccccc1)Oc1ccc(F)cc1 (centres undefined), the inhibition was inactive: 4.02%. For Cc1cc(C)cc(OP(C)(=O)Nc2cccc(C(F)(F)F)c2)c1 (centres undefined), the inhibition was inactive: -0.2%. In the case of O=C1C(O)=C([N+](=O)[O-])C(=O)C(O)=C1[N+](=O)[O-], the inhibition was inactive: 12.5%. For COc1ccc(OP(C)(=O)Nc2ccccc2Br)cc1 (centres undefined), the inhibition was inactive: -4.6%. In the case of COc1ccccc1OP(C)(=O)Nc1ccc(C)c(C)c1 (centres undefined), the inhibition was inactive: -5.88%. With CP(=O)(OCCOc1ccccc1)OCCOc1ccccc1 the inhibition was inactive: -7.03%. CCCCCCCCCCCCCCCC1C[N+](C)(C)CCOP(C)(=O)O1 (centres undefined) was tested, and the inhibition was inactive: 3.97%. In the case of CP(=O)(Nc1ccc(Cl)cc1Cl)Oc1ccccc1 (centres undefined), the inhibition was inactive: -4.14%. COc1ccccc1OP(C)(=O)Nc1ccc(Br)cc1 (centres undefined) was tested, and the inhibition was inactive: 5.29%. For CN(C)CCOC(=O)C(O)(c1ccccc1)C1CCCC1 (centres undefined), the inhibition was inactive: 5.67%. With COc1ccc(OP(C)(=O)Nc2ccccn2)cc1 (centres undefined) the inhibition was inactive: -3.24%. For O=[N+]([O-])c1cc([N+](=O)[O-])c(Nc2ccccn2)c([N+](=O)[O-])c1, the inhibition was inactive: 5.51%. For Cc1c(NP(C)(=O)Oc2ccc(C(C)C)cc2)c(=O)n(-c2ccccc2)n1C (centres undefined), the inhibition was inactive: -1.25%. CCc1ccc(OP(C)(=O)O)cc1 was tested, and the inhibition was inactive: -4.75%. In the case of COc1ccccc1OP(C)(=O)Nc1ccc(C)cc1C (centres undefined), the inhibition was inactive: -0.91%. CP(=O)(Nc1ccccn1)Oc1ccccc1 (centres undefined) was tested, and the inhibition was inactive: 2.22%. In the case of COc1ccc(OP(C)(=O)Nc2ccc(Br)cc2)cc1 (centres undefined), the inhibition was inactive: 2.49%. For CCN(CC)CC(O)COC(=O)C(O)(c1ccccc1)C1CCCCC1 (centres undefined), the inhibition was inactive: 4.31%. In the case of CCc1ccc(OP(C)(=O)Nc2cccnc2)cc1 (centres undefined), the inhibition was inactive: -4.37%. With CP(=O)(Oc1ccccc1)N1CCOC1=O (centres undefined) the inhibition was inactive: 5.61%. For O=C(OCCCN1CCCC1)C(O)(c1ccccc1)C1CCCCC1 (centres undefined), the inhibition was inactive: -5.71%. In the case of COc1ccccc1OP(C)(=O)Nc1c(C)n(C)n(-c2ccccc2)c1=O (centres undefined), the inhibition was inactive: -2.3%. With CP(=O)(Nc1ccc(Cl)cc1)Oc1ccc(F)cc1 (centres undefined) the inhibition was inactive: -2.54%.
